{
  "sequences": {"note": "By UniProt entry, the sequences of proteins in these tests, tags left out. Where a name states a change or a piece, a line headed by the entry shows the natural chain unless it says otherwise. Residues count along the entry.", "UniProt O43683": "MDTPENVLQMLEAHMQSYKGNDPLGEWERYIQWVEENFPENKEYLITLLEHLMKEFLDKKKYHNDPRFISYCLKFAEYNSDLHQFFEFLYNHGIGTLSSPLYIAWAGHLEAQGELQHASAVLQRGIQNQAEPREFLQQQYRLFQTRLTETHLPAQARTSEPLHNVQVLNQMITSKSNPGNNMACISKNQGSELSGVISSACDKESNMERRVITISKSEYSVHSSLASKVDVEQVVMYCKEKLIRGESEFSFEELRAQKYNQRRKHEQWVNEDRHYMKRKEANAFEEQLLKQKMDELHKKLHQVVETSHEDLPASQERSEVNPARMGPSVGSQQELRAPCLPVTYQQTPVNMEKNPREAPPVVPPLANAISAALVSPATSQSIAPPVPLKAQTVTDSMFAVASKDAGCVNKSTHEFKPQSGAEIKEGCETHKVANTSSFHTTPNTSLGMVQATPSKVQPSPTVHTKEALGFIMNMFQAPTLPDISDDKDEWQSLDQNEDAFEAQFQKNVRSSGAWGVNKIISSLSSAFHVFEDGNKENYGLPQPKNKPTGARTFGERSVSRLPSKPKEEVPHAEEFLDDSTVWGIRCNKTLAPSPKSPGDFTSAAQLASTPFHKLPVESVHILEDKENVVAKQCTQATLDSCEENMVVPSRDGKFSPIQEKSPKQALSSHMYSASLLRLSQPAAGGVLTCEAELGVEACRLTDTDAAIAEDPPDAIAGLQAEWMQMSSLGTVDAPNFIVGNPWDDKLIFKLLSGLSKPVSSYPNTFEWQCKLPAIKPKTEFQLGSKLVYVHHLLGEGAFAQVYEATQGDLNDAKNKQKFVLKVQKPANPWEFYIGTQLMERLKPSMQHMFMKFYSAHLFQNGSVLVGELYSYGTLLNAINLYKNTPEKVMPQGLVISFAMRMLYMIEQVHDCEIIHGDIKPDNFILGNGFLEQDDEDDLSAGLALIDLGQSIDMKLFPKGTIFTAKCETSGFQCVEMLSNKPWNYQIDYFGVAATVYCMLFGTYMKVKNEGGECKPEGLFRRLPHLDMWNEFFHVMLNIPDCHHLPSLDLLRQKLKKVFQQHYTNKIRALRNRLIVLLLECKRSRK", "UniProt Q8WU08": "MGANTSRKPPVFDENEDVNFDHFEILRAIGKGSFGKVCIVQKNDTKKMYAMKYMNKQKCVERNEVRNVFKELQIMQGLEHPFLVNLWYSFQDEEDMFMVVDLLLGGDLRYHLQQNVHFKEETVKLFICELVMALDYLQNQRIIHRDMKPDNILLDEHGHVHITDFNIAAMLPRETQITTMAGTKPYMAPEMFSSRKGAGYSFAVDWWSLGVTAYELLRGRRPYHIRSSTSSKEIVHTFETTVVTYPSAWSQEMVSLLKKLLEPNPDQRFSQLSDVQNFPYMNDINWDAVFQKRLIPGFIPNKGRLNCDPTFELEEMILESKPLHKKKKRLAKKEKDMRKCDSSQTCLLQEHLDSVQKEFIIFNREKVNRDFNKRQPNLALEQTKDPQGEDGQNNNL", "UniProt Q9BRS2": "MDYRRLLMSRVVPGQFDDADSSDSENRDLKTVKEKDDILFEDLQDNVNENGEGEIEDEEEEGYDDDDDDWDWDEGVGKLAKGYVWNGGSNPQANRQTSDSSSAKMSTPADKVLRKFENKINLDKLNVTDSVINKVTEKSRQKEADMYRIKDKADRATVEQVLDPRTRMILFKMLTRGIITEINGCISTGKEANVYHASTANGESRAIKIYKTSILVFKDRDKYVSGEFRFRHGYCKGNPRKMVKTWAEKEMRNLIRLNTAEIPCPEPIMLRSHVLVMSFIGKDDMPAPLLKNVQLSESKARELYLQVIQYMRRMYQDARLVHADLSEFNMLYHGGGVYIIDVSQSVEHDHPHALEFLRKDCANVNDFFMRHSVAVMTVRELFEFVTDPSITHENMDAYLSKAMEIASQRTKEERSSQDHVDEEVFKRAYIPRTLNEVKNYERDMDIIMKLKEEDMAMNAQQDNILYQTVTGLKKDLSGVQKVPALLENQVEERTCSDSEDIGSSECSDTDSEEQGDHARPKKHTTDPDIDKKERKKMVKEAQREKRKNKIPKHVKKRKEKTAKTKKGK", "UniProt Q99683": "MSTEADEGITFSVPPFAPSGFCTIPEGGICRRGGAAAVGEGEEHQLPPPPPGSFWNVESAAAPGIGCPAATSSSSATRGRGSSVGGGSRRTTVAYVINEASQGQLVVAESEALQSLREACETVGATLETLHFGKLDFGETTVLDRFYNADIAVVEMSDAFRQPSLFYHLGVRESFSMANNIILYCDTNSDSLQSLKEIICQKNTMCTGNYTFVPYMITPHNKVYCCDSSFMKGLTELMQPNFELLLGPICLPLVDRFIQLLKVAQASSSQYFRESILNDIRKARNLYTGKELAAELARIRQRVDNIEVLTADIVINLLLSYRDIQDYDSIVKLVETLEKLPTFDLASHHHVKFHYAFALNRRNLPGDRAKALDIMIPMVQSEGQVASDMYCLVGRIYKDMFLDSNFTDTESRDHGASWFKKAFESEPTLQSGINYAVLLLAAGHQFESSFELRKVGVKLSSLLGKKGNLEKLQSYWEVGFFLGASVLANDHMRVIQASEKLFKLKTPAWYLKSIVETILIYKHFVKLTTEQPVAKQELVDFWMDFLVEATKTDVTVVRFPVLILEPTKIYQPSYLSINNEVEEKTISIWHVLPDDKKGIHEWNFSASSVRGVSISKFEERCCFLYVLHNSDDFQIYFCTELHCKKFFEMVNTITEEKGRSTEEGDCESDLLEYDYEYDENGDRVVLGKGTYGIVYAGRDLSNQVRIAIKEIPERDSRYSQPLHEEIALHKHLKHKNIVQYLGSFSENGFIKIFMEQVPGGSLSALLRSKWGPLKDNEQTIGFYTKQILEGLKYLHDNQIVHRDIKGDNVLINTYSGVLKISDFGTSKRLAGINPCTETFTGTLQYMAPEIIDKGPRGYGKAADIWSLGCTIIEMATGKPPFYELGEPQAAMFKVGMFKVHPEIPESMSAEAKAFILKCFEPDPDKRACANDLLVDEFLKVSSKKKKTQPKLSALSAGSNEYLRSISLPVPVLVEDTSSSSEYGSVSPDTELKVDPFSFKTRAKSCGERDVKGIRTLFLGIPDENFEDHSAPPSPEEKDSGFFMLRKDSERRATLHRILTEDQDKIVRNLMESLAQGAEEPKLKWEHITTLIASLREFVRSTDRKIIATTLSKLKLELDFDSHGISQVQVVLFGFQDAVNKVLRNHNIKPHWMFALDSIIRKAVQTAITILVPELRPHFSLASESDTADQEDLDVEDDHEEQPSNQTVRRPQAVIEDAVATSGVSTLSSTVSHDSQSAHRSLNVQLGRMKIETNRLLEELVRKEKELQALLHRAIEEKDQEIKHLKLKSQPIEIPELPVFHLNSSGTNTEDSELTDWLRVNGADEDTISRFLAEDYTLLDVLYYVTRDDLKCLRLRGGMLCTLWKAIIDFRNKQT", "UniProt O14578, whole entry": "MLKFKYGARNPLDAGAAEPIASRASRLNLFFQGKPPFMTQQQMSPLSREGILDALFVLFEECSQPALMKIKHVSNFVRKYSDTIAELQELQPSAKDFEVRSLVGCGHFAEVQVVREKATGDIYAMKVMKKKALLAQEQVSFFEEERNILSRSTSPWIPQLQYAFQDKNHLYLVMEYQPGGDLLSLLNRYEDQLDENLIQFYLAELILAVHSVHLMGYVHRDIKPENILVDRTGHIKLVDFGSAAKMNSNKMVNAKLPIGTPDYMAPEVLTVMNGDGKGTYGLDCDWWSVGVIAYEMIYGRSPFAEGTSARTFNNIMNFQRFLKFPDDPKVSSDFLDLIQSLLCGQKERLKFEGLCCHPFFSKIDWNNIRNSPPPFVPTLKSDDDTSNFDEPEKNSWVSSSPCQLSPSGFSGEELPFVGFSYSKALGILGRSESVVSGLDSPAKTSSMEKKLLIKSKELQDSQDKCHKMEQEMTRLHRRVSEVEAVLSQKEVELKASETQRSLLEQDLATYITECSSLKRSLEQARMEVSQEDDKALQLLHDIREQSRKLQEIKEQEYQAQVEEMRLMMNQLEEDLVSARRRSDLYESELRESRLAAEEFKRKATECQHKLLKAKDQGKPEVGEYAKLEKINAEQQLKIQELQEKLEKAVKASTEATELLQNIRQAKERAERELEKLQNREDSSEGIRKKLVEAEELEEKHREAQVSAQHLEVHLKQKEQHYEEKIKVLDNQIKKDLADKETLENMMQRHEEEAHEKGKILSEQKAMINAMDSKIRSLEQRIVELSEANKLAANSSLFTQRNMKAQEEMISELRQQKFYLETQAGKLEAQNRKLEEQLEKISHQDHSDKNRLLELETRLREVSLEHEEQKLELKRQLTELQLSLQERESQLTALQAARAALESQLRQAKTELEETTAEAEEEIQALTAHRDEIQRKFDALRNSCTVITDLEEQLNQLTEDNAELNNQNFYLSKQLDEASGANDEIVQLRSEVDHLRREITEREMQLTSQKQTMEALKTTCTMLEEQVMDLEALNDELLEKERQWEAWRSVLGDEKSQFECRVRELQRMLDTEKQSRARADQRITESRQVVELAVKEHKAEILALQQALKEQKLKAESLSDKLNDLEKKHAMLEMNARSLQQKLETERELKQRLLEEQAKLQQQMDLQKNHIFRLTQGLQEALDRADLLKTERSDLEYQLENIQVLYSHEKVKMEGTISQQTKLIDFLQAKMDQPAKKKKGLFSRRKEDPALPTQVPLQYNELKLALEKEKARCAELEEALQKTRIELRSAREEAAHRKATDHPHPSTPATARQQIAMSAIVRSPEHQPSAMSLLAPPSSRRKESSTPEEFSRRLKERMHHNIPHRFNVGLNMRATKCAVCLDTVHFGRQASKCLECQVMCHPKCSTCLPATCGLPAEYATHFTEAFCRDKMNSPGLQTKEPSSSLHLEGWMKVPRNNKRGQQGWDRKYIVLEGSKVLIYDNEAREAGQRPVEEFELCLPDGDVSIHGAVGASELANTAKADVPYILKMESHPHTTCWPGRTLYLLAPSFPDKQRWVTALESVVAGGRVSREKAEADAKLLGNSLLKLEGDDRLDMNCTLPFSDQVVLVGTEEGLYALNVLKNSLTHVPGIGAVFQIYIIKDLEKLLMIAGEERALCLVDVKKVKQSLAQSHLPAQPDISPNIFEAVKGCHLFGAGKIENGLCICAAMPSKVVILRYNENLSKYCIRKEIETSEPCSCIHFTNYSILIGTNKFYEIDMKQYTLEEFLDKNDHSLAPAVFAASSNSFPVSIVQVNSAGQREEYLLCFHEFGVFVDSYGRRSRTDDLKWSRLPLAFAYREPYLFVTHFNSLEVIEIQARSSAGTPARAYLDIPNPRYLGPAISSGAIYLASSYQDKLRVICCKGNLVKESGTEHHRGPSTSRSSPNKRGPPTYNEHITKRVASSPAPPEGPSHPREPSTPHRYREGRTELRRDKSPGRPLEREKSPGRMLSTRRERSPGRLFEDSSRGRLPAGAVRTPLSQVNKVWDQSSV", "UniProt P31152, whole entry": "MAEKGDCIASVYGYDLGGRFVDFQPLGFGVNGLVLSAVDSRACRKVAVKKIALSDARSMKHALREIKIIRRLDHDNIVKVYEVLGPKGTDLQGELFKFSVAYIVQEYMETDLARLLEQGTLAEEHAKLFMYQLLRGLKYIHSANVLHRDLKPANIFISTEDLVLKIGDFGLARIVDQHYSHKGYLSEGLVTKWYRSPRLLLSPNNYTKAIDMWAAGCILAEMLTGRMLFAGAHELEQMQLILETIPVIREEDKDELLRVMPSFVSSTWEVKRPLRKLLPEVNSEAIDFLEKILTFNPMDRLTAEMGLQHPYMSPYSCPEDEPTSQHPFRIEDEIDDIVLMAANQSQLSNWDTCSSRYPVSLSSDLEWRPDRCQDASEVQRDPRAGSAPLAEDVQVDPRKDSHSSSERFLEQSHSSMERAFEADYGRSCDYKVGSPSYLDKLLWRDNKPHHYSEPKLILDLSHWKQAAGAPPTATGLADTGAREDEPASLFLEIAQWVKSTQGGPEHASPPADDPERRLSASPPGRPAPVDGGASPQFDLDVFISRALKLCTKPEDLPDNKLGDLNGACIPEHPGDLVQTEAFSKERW", "UniProt P23458, 875-1153 limits assumed": "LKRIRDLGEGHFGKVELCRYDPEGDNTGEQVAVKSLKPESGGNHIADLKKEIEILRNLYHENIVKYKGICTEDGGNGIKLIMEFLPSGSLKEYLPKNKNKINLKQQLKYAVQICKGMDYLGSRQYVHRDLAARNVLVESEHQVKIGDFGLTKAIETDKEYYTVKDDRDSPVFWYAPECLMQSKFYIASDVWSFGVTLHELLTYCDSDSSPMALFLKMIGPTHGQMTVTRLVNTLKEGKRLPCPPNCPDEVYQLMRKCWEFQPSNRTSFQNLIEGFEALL"},
  "source": "paper PMC11472320",
  "about": "“Computationally Driven Discovery of a BCR-ABL1 Kinase Inhibitor with Activity in Multidrug-Resistant Chronic Myeloid Leukemia” (Journal of Medicinal Chemistry, 2024)",
  "test_in_all_cases": "biochemical",
  "details_in_all_cases": "read-out: Percent Control",
  "key": {"BUB1": {"biological_target": "BUB1 (Homo sapiens, UniProt O43683)"}, "TNK2": {"biological_target": "TNK2 (Homo sapiens, UniProt Q07912)"}, "PIK3C2B": {"biological_target": "PIK3C2B (Homo sapiens, UniProt O00750)"}, "FLT3(D835H)": {"biological_target": "FLT3(D835H) (Homo sapiens, UniProt P36888, D835H)"}, "YANK1": {"biological_target": "YANK1 (Homo sapiens, UniProt Q8WU08)"}, "RET": {"biological_target": "RET (Homo sapiens, UniProt P07949)"}, "EPHA6": {"biological_target": "EPHA6 (Homo sapiens, UniProt Q9UF33)"}, "RIOK1": {"biological_target": "RIOK1 (Homo sapiens, UniProt Q9BRS2)"}, "TRPM6": {"biological_target": "TRPM6 (Homo sapiens, UniProt Q9BX84)"}, "FLT4": {"biological_target": "FLT4 (Homo sapiens, UniProt P35916)"}, "MKNK2": {"biological_target": "MKNK2 (Homo sapiens, UniProt Q9HBH9)"}, "ASK1": {"biological_target": "ASK1 (Homo sapiens, UniProt Q99683)"}, "MKNK1": {"biological_target": "MKNK1 (Homo sapiens, UniProt Q9BUB5)"}, "PIK3CA(I800L)": {"biological_target": "PIK3CA(I800L) (Homo sapiens, UniProt P42336, I800L)"}, "DDR1": {"biological_target": "DDR1 (Homo sapiens, UniProt Q08345)"}, "MAP3K4": {"biological_target": "MAP3K4 (Homo sapiens, UniProt Q9Y6R4)"}, "MYLK": {"biological_target": "MYLK (Homo sapiens, UniProt Q15746)"}, "MYLK2": {"biological_target": "MYLK2 (Homo sapiens, UniProt Q9H1R3)"}, "CIT": {"biological_target": "CIT (Homo sapiens, UniProt O14578)"}, "ROCK2": {"biological_target": "ROCK2 (Homo sapiens, UniProt O75116)"}, "ERK1": {"biological_target": "ERK1 (Homo sapiens, UniProt P27361)"}, "ACVR2B": {"biological_target": "ACVR2B (Homo sapiens, UniProt Q13705)"}, "LIMK2": {"biological_target": "LIMK2 (Homo sapiens, UniProt P53671)"}, "FLT3(N841I)": {"biological_target": "FLT3(N841I) (Homo sapiens, UniProt P36888, N841I)"}, "ERK4": {"biological_target": "ERK4 (Homo sapiens, UniProt P31152)"}, "PRKG2": {"biological_target": "PRKG2 (Homo sapiens, UniProt Q13237)"}, "EGFR(L861Q)": {"biological_target": "EGFR(L861Q) (Homo sapiens, UniProt P00533, L861Q)"}, "BRSK2": {"biological_target": "BRSK2 (Homo sapiens, UniProt Q8IWQ3)"}, "CSNK1A1L": {"biological_target": "CSNK1A1L (Homo sapiens, UniProt Q8N752)"}, "AKT3": {"biological_target": "AKT3 (Homo sapiens, UniProt Q9Y243)"}, "LOK": {"biological_target": "LOK (Homo sapiens, UniProt O94804)"}, "EGFR(L858R,T790M)": {"biological_target": "EGFR(L858R,T790M) (Homo sapiens, UniProt P00533, L858R/T790M)"}, "FAK": {"biological_target": "FAK (Homo sapiens, UniProt Q05397)"}, "MAP3K3": {"biological_target": "MAP3K3 (Homo sapiens, UniProt Q99759)"}, "PIK3CA(M1043I)": {"biological_target": "PIK3CA(M1043I) (Homo sapiens, UniProt P42336, M1043I)"}, "GRK2": {"biological_target": "GRK2 (Homo sapiens, UniProt P25098)"}, "ULK3": {"biological_target": "ULK3 (Homo sapiens, UniProt Q6PHR2)"}, "ERN 1.00": {"biological_target": "ERN 1.00 (Homo sapiens, UniProt O75460)"}, "VRK2": {"biological_target": "VRK2 (Homo sapiens, UniProt Q86Y07)"}, "[1]": {"biological_target": "JAK1(JH1domain-catalytic) (Homo sapiens, UniProt P23458)"}, "MST3": {"biological_target": "MST3 (Homo sapiens, UniProt Q9Y6E0)"}, "CDK7": {"biological_target": "CDK7 (Homo sapiens, UniProt P50613)"}, "BRSK1": {"biological_target": "BRSK1 (Homo sapiens, UniProt Q8TDC3)"}},
  "data": [
    {"smiles": "COc1cc2c(Nc3ccc(Cl)c(OC)n3)c(C#N)cnc2cc1OCCON1CCN(C)CC1", "note": "[16a, 4-((5-Chloro-6-methoxypyridin-2-yl)amino)-6-methoxy-7-(2-((4-methylpiperazin-1-yl)oxy)ethoxy)quinoline-3-carbonitrile]", "values": [
      {"measurement": "remaining activity at 1 µM", "setting": "BUB1", "result": 100, "unit": "%"},
      {"measurement": "remaining activity at 1 µM", "setting": "TNK2", "result": 2.2, "unit": "%"},
      {"measurement": "remaining activity at 1 µM", "setting": "PIK3C2B", "result": 100, "unit": "%"},
      {"measurement": "remaining activity at 1 µM", "setting": "FLT3(D835H)", "result": 25, "unit": "%"},
      {"measurement": "remaining activity at 1 µM", "setting": "YANK1", "result": 100, "unit": "%"},
      {"measurement": "remaining activity at 1 µM", "setting": "RET", "result": 48, "unit": "%"},
      {"measurement": "remaining activity at 1 µM", "setting": "EPHA6", "result": 90, "unit": "%"},
      {"measurement": "remaining activity at 1 µM", "setting": "RIOK1", "result": 16, "unit": "%"},
      {"measurement": "remaining activity at 1 µM", "setting": "TRPM6", "result": 100, "unit": "%"},
      {"measurement": "remaining activity at 1 µM", "setting": "FLT4", "result": 67, "unit": "%"},
      {"measurement": "remaining activity at 1 µM", "setting": "MKNK2", "result": 100, "unit": "%"},
      {"measurement": "remaining activity at 1 µM", "setting": "ASK1", "result": 100, "unit": "%"},
      {"measurement": "remaining activity at 1 µM", "setting": "MKNK1", "result": 100, "unit": "%"},
      {"measurement": "remaining activity at 1 µM", "setting": "PIK3CA(I800L)", "result": 100, "unit": "%"},
      {"measurement": "remaining activity at 1 µM", "setting": "DDR1", "result": 25, "unit": "%"},
      {"measurement": "remaining activity at 1 µM", "setting": "MAP3K4", "result": 2.6, "unit": "%"},
      {"measurement": "remaining activity at 1 µM", "setting": "MYLK", "result": 35, "unit": "%"},
      {"measurement": "remaining activity at 1 µM", "setting": "MYLK2", "result": 16, "unit": "%"},
      {"measurement": "remaining activity at 1 µM", "setting": "CIT", "result": 1.2, "unit": "%"},
      {"measurement": "remaining activity at 1 µM", "setting": "ROCK2", "result": 8.6, "unit": "%"},
      {"measurement": "remaining activity at 1 µM", "setting": "ERK1", "result": 100, "unit": "%"},
      {"measurement": "remaining activity at 1 µM", "setting": "ACVR2B", "result": 100, "unit": "%"},
      {"measurement": "remaining activity at 1 µM", "setting": "LIMK2", "result": 100, "unit": "%"},
      {"measurement": "remaining activity at 1 µM", "setting": "FLT3(N841I)", "result": 17, "unit": "%"},
      {"measurement": "remaining activity at 1 µM", "setting": "ERK4", "result": 78, "unit": "%"},
      {"measurement": "remaining activity at 1 µM", "setting": "PRKG2", "result": 100, "unit": "%"},
      {"measurement": "remaining activity at 1 µM", "setting": "EGFR(L861Q)", "result": 1, "unit": "%"},
      {"measurement": "remaining activity at 1 µM", "setting": "BRSK2", "result": 87, "unit": "%"},
      {"measurement": "remaining activity at 1 µM", "setting": "CSNK1A1L", "result": 4, "unit": "%"},
      {"measurement": "remaining activity at 1 µM", "setting": "AKT3", "result": 100, "unit": "%"},
      {"measurement": "remaining activity at 1 µM", "setting": "LOK", "result": 0.1, "unit": "%"},
      {"measurement": "remaining activity at 1 µM", "setting": "EGFR(L858R,T790M)", "result": 29, "unit": "%"},
      {"measurement": "remaining activity at 1 µM", "setting": "FAK", "result": 43, "unit": "%"},
      {"measurement": "remaining activity at 1 µM", "setting": "MAP3K3", "result": 0.1, "unit": "%"},
      {"measurement": "remaining activity at 1 µM", "setting": "PIK3CA(M1043I)", "result": 100, "unit": "%"},
      {"measurement": "remaining activity at 1 µM", "setting": "GRK2", "result": 97, "unit": "%"},
      {"measurement": "remaining activity at 1 µM", "setting": "ULK3", "result": 0.55, "unit": "%"},
      {"measurement": "remaining activity at 1 µM", "setting": "ERN 1.00", "result": 100, "unit": "%"},
      {"measurement": "remaining activity at 1 µM", "setting": "VRK2", "result": 46, "unit": "%"},
      {"measurement": "remaining activity at 1 µM", "setting": "[1]", "result": 100, "unit": "%"},
      {"measurement": "remaining activity at 1 µM", "setting": "MST3", "result": 25, "unit": "%"},
      {"measurement": "remaining activity at 1 µM", "setting": "CDK7", "result": 26, "unit": "%"},
      {"measurement": "remaining activity at 1 µM", "setting": "BRSK1", "result": 100, "unit": "%"}
    ]}
  ]
}
